In the assay the target is Cathepsin L (Homo sapiens, UniProt P07711). Nature of the assay: Cathepsin L kinetic assay.

Sequences of proteins named here, by UniProt entry; tags and fusion partners are left off. Residues count along the entry.
UniProt P07711, 114-333: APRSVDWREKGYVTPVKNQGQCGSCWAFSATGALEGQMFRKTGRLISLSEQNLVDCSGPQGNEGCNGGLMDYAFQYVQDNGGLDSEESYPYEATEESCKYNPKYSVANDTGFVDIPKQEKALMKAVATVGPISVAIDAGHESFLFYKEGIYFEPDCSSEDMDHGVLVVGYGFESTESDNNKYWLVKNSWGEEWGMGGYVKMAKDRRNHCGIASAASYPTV

As to `CC[C@H](C)[C@@H](C(=O)O[C@@H](CC(C)C)C(=O)N[C@@H](CC(C)C)C(=O)N[C@H](/C=C/C(=O)N1C(=O)C=C(OC)[C@@H]1CC(C)C)Cc1ccccc1)N(C)C` [compound 10, (S)-1-(((S)-1-(((S,E)-5-((S)-2-Isobutyl-3-methoxy-5-oxo-2,5-dihydro-1H-pyrrol-1-yl)-5-oxo-1-phenylpent-3-en-2-yl)amino)-4-methyl-1-oxopentan-2-yl)amino)-4-methyl-1-oxopentan-2-yl dimethyl-L-isoleucinate], the kinact/KI was found to be 8.73e+06 M⁻¹ s⁻¹.

Values taken from publication PMC7240701 (Journal of medicinal chemistry, 2019).
